This note sets out measurements from ChEMBL document CHEMBL1145679, “Perhydrogenation of tabersonine, ans Aspidiosperma indole alkaloid” (J Nat Prod, 1997).

By UniProt entry, the sequences of proteins in these tests, tags left out. Where a name states a change or a piece, a line headed by the entry shows the natural chain unless it says otherwise.
UniProt P22086: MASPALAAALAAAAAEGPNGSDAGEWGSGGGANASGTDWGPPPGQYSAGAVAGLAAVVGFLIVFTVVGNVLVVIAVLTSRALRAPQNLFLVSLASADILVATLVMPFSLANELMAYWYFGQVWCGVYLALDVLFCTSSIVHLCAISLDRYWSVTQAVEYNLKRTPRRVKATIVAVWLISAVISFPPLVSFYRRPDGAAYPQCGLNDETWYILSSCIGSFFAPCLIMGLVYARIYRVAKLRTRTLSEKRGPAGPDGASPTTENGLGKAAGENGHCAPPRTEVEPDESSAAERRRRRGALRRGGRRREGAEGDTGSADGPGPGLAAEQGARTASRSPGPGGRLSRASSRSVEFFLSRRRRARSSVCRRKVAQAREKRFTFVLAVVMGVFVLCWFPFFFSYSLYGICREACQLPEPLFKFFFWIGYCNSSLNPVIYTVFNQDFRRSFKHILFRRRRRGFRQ
UniProt P19328: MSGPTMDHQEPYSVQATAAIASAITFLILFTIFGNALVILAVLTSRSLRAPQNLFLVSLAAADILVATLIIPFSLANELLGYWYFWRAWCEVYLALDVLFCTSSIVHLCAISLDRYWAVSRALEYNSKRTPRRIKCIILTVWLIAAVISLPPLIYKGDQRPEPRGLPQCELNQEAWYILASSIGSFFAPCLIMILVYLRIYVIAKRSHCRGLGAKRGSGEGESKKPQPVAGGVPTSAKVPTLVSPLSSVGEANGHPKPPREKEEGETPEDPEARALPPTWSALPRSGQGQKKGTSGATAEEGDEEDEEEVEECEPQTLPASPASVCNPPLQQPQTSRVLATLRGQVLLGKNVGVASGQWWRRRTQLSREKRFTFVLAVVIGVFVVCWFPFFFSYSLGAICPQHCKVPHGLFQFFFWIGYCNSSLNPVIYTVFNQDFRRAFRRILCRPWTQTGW
UniProt P22909: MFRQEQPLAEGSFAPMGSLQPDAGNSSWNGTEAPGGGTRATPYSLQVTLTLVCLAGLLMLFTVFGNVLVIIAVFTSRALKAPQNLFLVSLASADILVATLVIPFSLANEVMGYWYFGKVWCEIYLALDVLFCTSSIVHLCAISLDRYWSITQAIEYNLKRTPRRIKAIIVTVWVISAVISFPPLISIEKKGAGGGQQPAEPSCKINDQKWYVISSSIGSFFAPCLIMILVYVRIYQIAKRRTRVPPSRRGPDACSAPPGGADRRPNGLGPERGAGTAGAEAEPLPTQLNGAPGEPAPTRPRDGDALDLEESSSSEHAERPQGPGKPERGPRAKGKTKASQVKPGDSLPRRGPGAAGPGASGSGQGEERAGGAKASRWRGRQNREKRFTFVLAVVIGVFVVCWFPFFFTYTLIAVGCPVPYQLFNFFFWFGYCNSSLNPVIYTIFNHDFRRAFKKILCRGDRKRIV

In this experiment the target is Adrenergic receptor alpha-2 (Rattus norvegicus, UniProt P22086+P19328+P22909). As to the kind of experiment: Displacement of radioligand from rat alpha2 adrenergic receptor by liquid scintillation spectrometry.

Molecules are shown by their SMILES.

In the case of `CNC[C@H](O)c1ccc(O)c(O)c1` [EPINEPHRINE], the Ki turned out to be 160 nM.

One may read the Ki as a measure of affinity in units of concentration, obtained from inhibition or displacement. High values mean lower affinity, low ones higher affinity.
